Measurements published in US12410192B2, “Compound for inhibiting and inducing degradation of EGFR kinase” (BEIJING TIDE PHARMACEUTICAL CO., LTD., priority 2019, dated 2025).

Target: EGFR^L858R/T790M/C797S (Homo sapiens (Human), UniProt P00533, C797S/L858R/T790M)
Test: Assay of inhibitory activity on EGFR (HTRF kinase assay)
Assay type: biochemical
Conditions: mutant EGFR kinase
Procedure: Formula of inhibition rate (%): […]
The nonlinear regression curve (dose response-variable slope) between the value of inhibition rate (%) and the logarithm of compound concentration was fitted with graphpad prism 8.0, the effect dose curve of compound was drawn, and IC50 value was calculated.

Substance	IC50
3-(1-oxo-4-(5-(4-(((R,E)-1^1,2^6,7-trimethyl-3-oxo-5^2,5^3-dihydro-1^1H,5^1H-11-oxa-4-aza-5 (2,1)-benzo[d]imidazole-2 (2,4)-pyridine-1 (4,5)-pyrazolecyclododecan-5^6-yl)methyl)piperazin-1-yl) pent-1-yn-1-yl)isoindol-2-yl)piperidine-2,6-dione [Compound D2]	3.84 nM
3-(1-oxo-4-(4-(4-(((R,E)-1^1,2^6,7-trimethyl-3-oxo-5^2,5^3-dihydro-1^1H,5^1H-11-oxa-4-aza-5 (2,1)-benzo[d]imidazole-2 (2,4)-pyridine-1 (4,5)-pyrazolecyclododecan-5^6-yl)methyl)piperazin-1-yl)butyl)isoindol-2-yl)piperidine-2,6-dione [Compound D1]	4.53 nM
